# Values quoted from earlier work in US20250161335A1, “Drug and Method for Nucleoside (Acid) Drug Therapy of Limiting Chronic Hepatitis B” (Shanghai Hep Pharmaceutical Co., Ltd., priority 2022, published 2025).
# Tested on: HBV
substance,measurement,setting,value
PegIFNα-2a: pegylated interferon α-2a (40 KD),proportion of patients with HBV DNA <2×10^4 copies/ml,"HBeAg-negative patients (60% Asians), 48 weeks treatment, 24 weeks follow-up after withdrawal",43%
same,proportion of patients with HBV DNA <2×10^4 copies/ml,"HBeAg-negative patients, value in brackets 'after followed up for 24 weeks'",42%
same,HBeAg seroconversion rate,"HBeAg-positive chronic hepatitis B patients (87% Asians), 48 weeks treatment, 24 weeks follow-up after withdrawal",32%

# Read-outs that look alike come from different tables or passages of the source.
